## scFv variants of Ab-95 (light chain) against a SARS-CoV-2 spike peptide

Reference: Engelhart et al. 2022, doi:10.1038/s41597-022-01779-4. File: FLAb, binding data.

Target peptide (SARS-CoV-2 spike, HR2 region): PDVDLGDISGINAS

The variants keep the heavy chain, the linker and the frameworks of Ab-95 (scFv order VH, the linker GGGGSGGGGSGGGGS, VL).
VH: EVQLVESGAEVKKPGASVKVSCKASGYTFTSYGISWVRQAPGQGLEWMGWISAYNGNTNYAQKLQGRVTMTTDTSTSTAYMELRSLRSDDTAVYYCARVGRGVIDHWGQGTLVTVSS
VL: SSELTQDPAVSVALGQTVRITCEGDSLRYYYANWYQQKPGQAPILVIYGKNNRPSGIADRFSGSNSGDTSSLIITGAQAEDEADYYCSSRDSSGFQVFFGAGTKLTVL

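The parent was found by panning a naive human phage display library on the peptide. The library (AAYL52) carries one to three amino acid substitutions per variant, with no insertions or deletions. AlphaSeq pools MATa yeast showing the antibodies with MATalpha yeast showing the peptide. Mating (16 h, 30 °C) was followed by selection of diploids and sequencing of their barcodes. Scores were corrected for input abundance and mapped to Kd with protein pairs of known affinity run in the same pool. Mating was done three times.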

Each variant is given by its three light chain CDRs, as the data file delimits them; those of the parent are EGDSLRYYYAN, GKNNRPS, SSRDSSGFQVF.
This list gathers variants with a substitution at Y31 (VL, numbered from residue 1).
Each Kd is an estimate from the mating assay, the geometric mean of the replicates in which the pair was seen; lower is stronger.
A pair that was not seen in any replicate is written "no signal"; this usually means weak binding, but a binder can also be missed.
Background: pairings of library AAYL52 with three empty control strains gave a value in 28% of cases (median 8.2 µM, 5th percentile 800 nM). Values in that range, when seen in few replicates, are hard to tell from nonspecific mating.

| CDR-L1 | CDR-L2 | CDR-L3 | Kd | detected |
|---|---|---|---|---|
| EGDSLIYYCAN | GKNNRPS | HSRDSSGFQVF | 11 µM | 1/3 |
| EGDSLRYYLAN | GKNNQPS | SSRDSSVFQVF | 2.8 µM | 1/3 |
| EGESLRYYMAN | GKNNRPN | SSRDSSGFQVF | 150 nM | 2/3 |
| EGDSLRYYGAN | GKNNRPS | SSRDLMGFQVF | 620 nM | 3/3 |
| EHDSLMYYFAN | GKNNRPS | SSRDSSGFQVF | no signal | 0/3 |
| EGDSLRYYFAN | GKNNRPS | SSRDSSGFQVF | 400 nM | 3/3 |
| EGDSLRYYPFN | GKNNRPS | SSRDSSQFQVF | 600 nM | 3/3 |
| EGDCLRYYGAN | GKNNRPS | SSRDSSGFQVC | 610 nM | 3/3 |
| EGDSLRYYWAN | GKNNRPS | SSRDASGHQVF | 9.6 µM | 1/3 |
| EGDSLRYYAAR | GKNNRPS | SLRDSSGFQVF | 180 nM | 3/3 |
| EGDSLRYYKAN | GKNNRPS | SSRNASGFQVF | 990 nM | 1/3 |
| EGDSLRYYQAN | GKNNRIS | SSRDSSGFQSF | 230 nM | 2/3 |
| EGDSLRYYPAN | GKNNRPS | SSRDSSGFQVF | 8.9 nM | 3/3 |
| EGDSLRYYCAN | GKNNRPS | SSRMDSGFQVF | 12 µM | 3/3 |
| VGDSLRYYIAN | GKNLRPS | SSRDSSGFQVF | 250 nM | 3/3 |
| ERDSLRYYTAN | GKNNRPS | SSEDSSGFQVF | 2.9 µM | 2/3 |
| EGDSLRYYTAN | GKNERPS | SSRDSSLFQVF | 44 nM | 3/3 |
| EGDSLRYYTAN | GKNYRPS | SSRDSSGFQVF | 430 nM | 3/3 |
| EGDSLRYYCAN | GINNRPS | SSRDSSGFQVA | 810 nM | 2/3 |
| EGDWLRYYIAN | GKNNRPS | SKRDSSGFQVF | 310 µM | 1/3 |
| EGDSLRYGPAN | GKNNRPY | SSRDSSGFQVF | 19 nM | 3/3 |
| EGDSLRYYGAN | GKNNRPE | SSRDSSGFQVQ | 62 nM | 3/3 |
| EGDSLYYYKGN | GKNNRPS | SSRDSSGFQVF | 6.4 µM | 2/3 |
| EGDSARYYDIN | GKNNRPS | SSRDSSGFQVF | 89 nM | 3/3 |
| EGDSLRYYTAN | GKLNRPS | DSRDSSGFQVF | 20 µM | 1/3 |
| MGDSLRYYSPN | GKNNRPS | SSRDSSGFQVF | 9.2 nM | 3/3 |
| EPDSLRYYNAN | GKNNRSS | SSRDSSGFQVF | 57 nM | 3/3 |
| MGDSLRYYFAN | GKNNRPS | SSCDSSGFQVF | 23 µM | 1/3 |
| EGDSLRYYTAH | GKNNRPK | SSRDSSGFQVF | 9.7 nM | 3/3 |
| EHDSLRYYFAN | GKNNRPS | SSRDSLGFQVF | 1.8 µM | 3/3 |
| EGTSLRYYCAN | GKNNRPS | SSRDSSHFQVF | 84 nM | 3/3 |
| EGDSLRYYHAN | GKNNRPA | SFRDSSGFQVF | no signal | 0/3 |
| PGDSLRYYIAN | GKENRPS | SSRDSSGFQVF | no signal | 0/3 |
| EGYSLRYYHAN | GKNNCPS | SSRDSSGFQVF | 2.3 µM | 2/3 |
| EGDSLRYYKAC | GKNNRPS | SSRDSSGFQVF | 210 µM | 2/3 |
| EGDSLIYYSPN | GKNNRPS | SSRDSSGFQVF | 72 nM | 3/3 |
| EGDSLRYYCAN | GKNGRPA | SSRDSSGFQVF | 130 nM | 3/3 |
| EGDSNRYYTAN | GKNNRPS | SSRDSSGFQVF | 750 nM | 3/3 |
| EGDELRYYHAN | GKNNRPS | SSRDSIGFQVF | 630 µM | 1/3 |
| EGDSLRYYTAN | GKNNRPS | SSRDVSNFQVF | 15 µM | 2/3 |
| EGDSLRTYIAN | GKNNRPS | SSRDSSGMQVF | 660 nM | 3/3 |
| ERDSLRYYLAN | GKNNRPS | SSRDSSGFNVF | 5.1 µM | 2/3 |
| EGDSLRYYNAN | GKMNRPS | SSRDSSGFQVF | 39 nM | 3/3 |
| EGDSLRYYHAN | GYNNRPS | SSRDCSGFQVF | 2.5 µM | 3/3 |
| EGDSLRYYAAN | GKNNRPS | SSRDSSGFQVY | 13 nM | 3/3 |
| EGDKLRYYDAN | GKNNRPS | SSRDSSGFQVF | 5.2 µM | 3/3 |
| EGDSLRYYDAN | GSNNRPS | SSRDSSMFQVF | 210 nM | 3/3 |
| WGDSLRYYRAN | GKNNRPS | SSRDSSGFQLF | 3.7 µM | 3/3 |
| EGDQLAYYGAN | GKNNRPS | SSRDSSGFQVF | 31 nM | 3/3 |
| EADSLRYPNAN | GKNNRPS | SSRDSSGFQVF | 4.8 nM | 3/3 |
| EGWSLRYYFAL | GKNNRPS | SSRDSSGFQVF | 7.5 µM | 2/3 |
| EGDSLRYTVAN | GKNNRPS | SSRDSSGDQVF | 300 nM | 3/3 |
| ELDSLRYYRAN | GKNNRPS | SSRDSKGFQVF | 73 µM | 1/3 |
| KGDSLRYYDAN | GKNNRPC | SSRDSSGFQVF | 5.2 nM | 3/3 |
| EGDSLRYYIAN | GVNNRPS | SSRDSSGKQVF | 11 µM | 3/3 |
| EGDSLRYYAAN | EKNNRPS | SSRDGSGFQVF | 330 nM | 3/3 |
| EGDSGRYYAAN | GKNNRPS | STRDSSGFQVF | 430 nM | 3/3 |

The 7 strongest on average among those seen in every replicate, once more:

| CDR-L1 | CDR-L2 | CDR-L3 | Kd | detected |
|---|---|---|---|---|
| EADSLRYPNAN | GKNNRPS | SSRDSSGFQVF | 4.8 nM | 3/3 |
| KGDSLRYYDAN | GKNNRPC | SSRDSSGFQVF | 5.2 nM | 3/3 |
| EGDSLRYYPAN | GKNNRPS | SSRDSSGFQVF | 8.9 nM | 3/3 |
| MGDSLRYYSPN | GKNNRPS | SSRDSSGFQVF | 9.2 nM | 3/3 |
| EGDSLRYYTAH | GKNNRPK | SSRDSSGFQVF | 9.7 nM | 3/3 |
| EGDSLRYYAAN | GKNNRPS | SSRDSSGFQVY | 13 nM | 3/3 |
| EGDSLRYGPAN | GKNNRPY | SSRDSSGFQVF | 19 nM | 3/3 |